Consider two molecules from ChEMBL document CHEMBL5634075, “An electrophilic fragment screening for the development of small molecules targeting caspase-2” (Eur J Med Chem, 2023).

For test [1], the target named is T1, Caspase-3 (Homo sapiens, UniProt P42574).
T1 sequence (P42574 whole entry): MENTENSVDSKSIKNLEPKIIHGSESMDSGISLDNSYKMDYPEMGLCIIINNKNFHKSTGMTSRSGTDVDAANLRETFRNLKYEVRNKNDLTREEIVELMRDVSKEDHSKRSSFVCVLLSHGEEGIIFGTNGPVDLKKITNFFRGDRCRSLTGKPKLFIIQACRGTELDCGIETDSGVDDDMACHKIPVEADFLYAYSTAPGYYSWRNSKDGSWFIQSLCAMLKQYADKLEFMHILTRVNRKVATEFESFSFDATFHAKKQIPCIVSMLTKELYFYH
Description: Inhibition of recombinant caspase-3 (unknown origin) using Ac-DEVD-AFC as substrate measured after 40 mins by fluorescence assay.

The species named for test [2] is Homo sapiens. Briefly: Selectivity ratio of IC50 for recombinant caspase-3 (unknown origin) to recombinant caspase-2 (unknown origin).
In test [3] the target is T2, Caspase-2 (Homo sapiens) (UniProt P42575).
T2 sequence (whole entry): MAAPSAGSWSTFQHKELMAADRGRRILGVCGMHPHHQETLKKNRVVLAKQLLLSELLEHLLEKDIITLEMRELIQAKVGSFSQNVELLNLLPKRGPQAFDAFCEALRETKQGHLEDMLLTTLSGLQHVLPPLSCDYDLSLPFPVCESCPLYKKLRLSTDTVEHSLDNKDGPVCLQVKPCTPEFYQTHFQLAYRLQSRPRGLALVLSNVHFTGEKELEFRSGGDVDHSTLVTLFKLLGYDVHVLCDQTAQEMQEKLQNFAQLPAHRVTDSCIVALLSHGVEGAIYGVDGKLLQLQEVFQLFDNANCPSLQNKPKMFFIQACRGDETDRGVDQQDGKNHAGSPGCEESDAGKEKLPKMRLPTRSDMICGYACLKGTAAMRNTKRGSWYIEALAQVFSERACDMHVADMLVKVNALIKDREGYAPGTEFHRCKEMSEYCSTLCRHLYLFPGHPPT
Description: Irreversible inhibition of recombinant caspase-2 (unknown origin) assessed as ratio of Kinact/Ki using Z-VDVAD-AFC as substrate measured after 40 mins by fluorescence assay. The method in brief:
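Caspase-2 kinetic fluorometric assay with Z-VDVAD-AFC. kOBS values obtained from progress curves at four or more inhibitor concentrations. kinact/Ki then derived by two-step irreversible secondary regression (Copeland).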

The subject of test [4] is HepG2. Briefly: Cytotoxicity against human HepG2 cells assessed as reduction in cell viability measured after 22 hrs by cell-titer glo assay. Format: functional, cell-based. A digest of the protocol:
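HepG2 cells at 250 cells/well, 1536-well format, settled 4 h at 37 °C and 5% CO2. Compound added acoustically (50 nL), 22 h at 37 °C. CellTiter-Glo reagent added, 15 min at room temperature, then luminescence read.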

As usually defined, the IC50 is the concentration that gives 50% inhibition. In the case of `CC(=O)N[C@@H](CC(=O)O)C(=O)N[C@@H](CCC(=O)O)C(=O)N[C@H](C(=O)N[C@H](C=O)CC(=O)O)C(C)C`, the IC50 in test [1] is 1.38 nM.
Consider `Cc1nc(-c2ccc3c(c2)CCN3C(=O)CCl)cs1`, for which the Ratio IC50 in test [2] is 19. Moreover, the Ratio in test [3] was 7.97 10^4/M/s. For the same molecule, the Activity entry in test [4] is “Dose-Dependent Effect”.
